Measured values from BindingDB's records for doi:10.1007/s002100000299 (University of Oslo, 2001).

Chains of the proteins cited; added tags and fusions are not shown. Lines headed by an entry give the natural chain unless they say otherwise; changes in a name come on top.
UniProt Q13639: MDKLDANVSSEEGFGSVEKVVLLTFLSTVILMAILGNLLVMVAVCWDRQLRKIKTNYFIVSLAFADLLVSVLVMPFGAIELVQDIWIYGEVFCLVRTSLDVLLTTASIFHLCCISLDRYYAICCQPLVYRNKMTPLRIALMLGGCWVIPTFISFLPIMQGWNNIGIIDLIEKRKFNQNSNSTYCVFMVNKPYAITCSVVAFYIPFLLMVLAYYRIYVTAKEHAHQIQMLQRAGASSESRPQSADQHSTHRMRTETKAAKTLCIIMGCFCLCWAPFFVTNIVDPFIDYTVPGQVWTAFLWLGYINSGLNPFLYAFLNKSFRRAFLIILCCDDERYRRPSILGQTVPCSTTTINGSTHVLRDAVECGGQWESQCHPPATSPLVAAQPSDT

Molecular target: 5-hydroxytryptamine receptor 4 (Homo sapiens, UniProt Q13639)

Compound `COc1cc(N)c(Cl)cc1C(=O)NC1CCN2CCCC1C2` (stereo unspecified) [NSC_3035240] has a Ki of 200 nM.
